From PubChem BioAssay AID2462 (Broad Institute, 2010)
This is a selection; strong and weak results do not stand in their true shares. The source made the active and inactive calls.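 The calls were made as follows: active = over half of replicate activation scores above 10%, or exactly half above 10 with the replicate mean above 10; inconclusive = replicate mean below 10 yet half the replicates above 10; inactive = over half of replicates below 10.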

Test: inducers of caspase signal in A1-primed MEFs – cell-based, luminescence, HTS, A1 inhibitor project, primary screen (AID 2462)
Conditions: MEF A1-2A-BIM cells, Caspase-Glo 3/7 luminescence, 3 h; hits give high values; percent of clofoctol response, vehicle zero; concentration not given here

Structure (SMILES)	caspase activation
O=[N+]([O-])c1cc([N+](=O)[O-])c(-c2cnn(-c3ccccc3)c2)c([N+](=O)[O-])c1	inactive: 0.279%
COc1ccccc1CNC(=O)COC(=O)C(O)(c1ccccc1)c1ccccc1	inactive: 0.83%
CC(C)/C=N\N=C(\N)N[N+](=O)[O-]	inactive: -0.411%
CN(C(=O)Cc1ccc(Cl)c(Cl)c1)[C@@H]1CCCC[C@H]1N1CCCC1	inactive: 0.403%
Cc1nc2ccc3ccccc3c2s1.O=[N+]([O-])c1cc([N+](=O)[O-])c(O)c([N+](=O)[O-])c1	inactive: 0.476%
CC1(CBr)Cn2c(nc3ccccc3c2=O)S1 (stereo not given)	inactive: 1.1%
O=[As](O)(c1ccccc1Br)c1ccccc1Br	inactive: 0.557%
O=[N+]([O-])c1cc([N+](=O)[O-])c(-n2nnc3ccccc32)c([N+](=O)[O-])c1	inactive: 0.147%
CCOP(=O)(NC(=NC(C)c1ccccc1)NC(C)c1ccccc1)OCC (stereo not given)	inactive: -1.24%
O=P1(Nc2ccccn2)COc2ccccc2OC1	inactive: 0.027%
CCC1=CC2Cc3nc4ccc(Cl)cc4c(N)c3C(C1)C2 (stereo not given)	inactive: 0.314%
CCOP(=O)(Nc1ccc(C)cn1)OCC	inactive: 0.287%
CN(CCCl)Cc1cc(Cl)c(NC2=NCCN2)c(Cl)c1	inactive: 0.557%
CC(C)(C)C(=O)NC(Sc1ncccn1)C(Cl)(Cl)Cl (stereo not given)	inactive: 1.5%
Clc1n[nH]nc1-c1nn[nH][15n]1	inactive: -0.15%
COc1ccccc1OP(C)(=O)Nc1c(C)cccc1C (stereo not given)	inactive: -0.312%
CN1CCCCC1COC(=O)C1(O)c2ccccc2CCc2ccccc21 (stereo not given)	inactive: -0.573%
O=P1(Nc2ncccn2)COc2ccccc2OC1	inactive: 0.0364%
CCCOc1ccc(NP(C)(=O)Oc2ccc(Cl)cc2)cc1 (stereo not given)	inactive: -0.369%
CP(=O)(Nc1ccc(SC(F)(F)F)cc1)Oc1ccccc1 (stereo not given)	inactive: -0.134%
Nc1cccc([As](=O)(O)c2ccccc2)c1	inactive: -0.389%
O=[As](O)(c1cccs1)c1cccs1	inactive: -0.174%
Cc1ccc(OCC(=O)OC2CN3CCC2CC3)cc1 (stereo not given)	inactive: -0.531%

Structure (SMILES)	caspase activation
O=P1(Nc2ccc(Br)cn2)COc2ccccc2OC1	inactive: 0.211%
NS(=O)(=O)c1cccc(NC(=O)COC(=O)C(O)(c2ccccc2)c2ccccc2)c1	inactive: 0.628%
CC1CCC(C(C)C)C(OP(=O)(Nc2ccccn2)c2ccccc2)C1 (stereo not given)	inactive: 0.792%
Cc1ccc(C(=O)OC2CN3CCC2CC3)cc1 (stereo not given)	inactive: 1.91%
Cc1nn(-c2ccccc2)c2c1P(=O)(N1CCOCC1)N(C)C(c1ccccc1)=N2 (stereo not given)	inactive: 0.367%
COc1cc(C2NCCC3(OCCO3)C2(C)C)cc(OC)c1OC.O=[N+]([O-])c1cc([N+](=O)[O-])c(O)c([N+](=O)[O-])c1 (stereo not given)	inactive: 0.711%
CCOC(=O)C(CC)C1=NC(C)(C)Cc2ccccc21.O=[N+]([O-])c1cc([N+](=O)[O-])c(O)c([N+](=O)[O-])c1 (stereo not given)	inactive: 0.802%
CN(C)C1(CNC(=O)c2ccc(S(C)(=O)=O)cc2)CCCCC1	inactive: 0.414%
CC1=C2N=C(C=C3N=C(C(C)=C4[N-][C@@](C)([C@@H]5N=C1[C@](C)(CCC(=O)NC[C@@H](C)OP(=O)([O-])O[C@H]1[C@@H](O)[C@@H](n6cnc7cc(C)c(C)cc76)O[C@@H]1CO)[C@H]5CC(N)=O)[C@@](C)(CC(N)=O)[C@@H]4CCC(N)=O)[C@@](C)(CC(N)=O)[C@@H]3CCC(N)=O)C(C)(C)[C@@H]2CCC(N)=O.[C-]#N.[Co+3]	inactive: -1.06%
O=[N+]([O-])c1cc([N+](=O)[O-])c(Nc2nnnn2CCO)c([N+](=O)[O-])c1	inactive: -1.84%
O=C(/C=C/c1ccccc1)OC1CN2CCC1CC2 (stereo not given)	inactive: -0.586%
NC(=O)Nc1ccc([As](=O)(O)O)cc1	inactive: 0.797%
CCOP1(=S)c2c(C)nn(CCC#N)c2N=C(c2ccc(F)cc2)N1C (stereo not given)	inactive: -0.000755%
CN(C(=O)Cc1ccccc1)[C@@H]1CC[C@]2(CCCO2)C[C@H]1N1CCCC1	inactive: 0.279%
N#CCCN(C(=O)COC(=O)C(O)(c1ccccc1)c1ccccc1)c1ccc(F)cc1	inactive: 0.38%
CC1=NCCc2c1[nH]c1ccccc21.O=[N+]([O-])c1cc([N+](=O)[O-])c(O)c([N+](=O)[O-])c1	inactive: 0.698%
CN(C(=O)Cc1ccc(Cl)c(Cl)c1)[C@H]1CC[C@@]2(CCCO2)C[C@@H]1N1CCCC1	inactive: -0.481%
O=[N+]([O-])c1ccc2c(c1)nnn2O	inactive: 0.125%
CN(C)C(=O)c1cc([N+](=O)[O-])cc2c1-c1c(cc([N+](=O)[O-])cc1[N+](=O)[O-])C2=O	inactive: -0.015%
O=P(Nc1nccs1)(Oc1ccccc1)Oc1ccccc1	inactive: 0.284%
O=P(Nc1nccs1)(c1ccccc1)c1nc2ccccc2s1 (stereo not given)	inactive: -0.602%
CCOP1(=S)c2c(C)nn(CCC#N)c2N=C(c2ccccc2F)N1C (stereo not given)	inactive: 0.616%
